Apparent affinities of Ab-95 variants for a coronavirus HR2 peptide

Target: peptide PDVDLGDISGINAS, taken from heptad repeat 2 (HR2) of SARS-CoV-2 spike.

Each scFv is VH, a 15-residue (Gly4Ser)3 linker, VL, as in the parent Ab-95, and differs from it in the CDRs of the light chain only.
VH: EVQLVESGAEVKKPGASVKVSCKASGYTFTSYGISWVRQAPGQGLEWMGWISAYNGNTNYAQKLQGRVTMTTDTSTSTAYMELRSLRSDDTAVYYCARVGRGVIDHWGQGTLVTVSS
VL: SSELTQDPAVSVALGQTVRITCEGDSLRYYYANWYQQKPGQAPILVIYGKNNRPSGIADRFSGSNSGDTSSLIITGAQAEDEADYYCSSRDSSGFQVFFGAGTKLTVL

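Phage display of a naive human antibody library on the peptide gave the parent. The library (AAYL52) carries one to three amino acid substitutions per variant, with no insertions or deletions. Affinity was read by AlphaSeq, a pooled yeast mating assay with surface-displayed partners. Pairs that bind mate more often; barcode pairs of the diploids are counted by sequencing. A regression on co-assayed BCL2-family reference pairs converts the normalised counts of each replicate to an apparent Kd. The assay was run in three technical replicates.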

Positions count from residue 1 of the parent VL; R28K puts K in place of R.
Every variant below is changed at R28 of the VL (sequential numbering).
The Kd shown is the geometric mean over detected replicates; a lower Kd is a better binder.
An entry "no signal" has no value in the source: the pair was not observed among the diploids in any replicate. This suggests poor binding but is not conclusive.
Parent in this assay: reference entry 200 nM, copy in this library 180 nM.
As a blank, each scFv also met three strains without target: over library AAYL52, 28% of these pairings were detected, typically at 8.2 µM and seldom below 800 nM. The control count says in how many pairings with the empty strains this scFv gave a signal.

| changes | Kd (apparent) | detected | signal with controls |
|---|---|---|---|
| R28K+Y29M+N52T | 230 nM | 3/3 | 1/9 |
| S26I+R28M+S93V | 96 µM | 1/3 | 2/9 |
| R28N+F95S+V97H | 230 µM | 1/3 | 2/9 |
| R28S+S89N+D91H | 1.2 µM | 3/3 | 3/9 |
| R28W+K50E+Q96G | 46 nM | 3/3 | 5/9 |
| E23N+R28D+N52D | 3.9 µM | 2/3 | 1/9 |
| R28V+N33R+G94K | no signal | 0/3 | 2/9 |
| G24A+R28M+R90D | 610 nM | 1/3 | 0/9 |
| E23P+R28P+S89Q | 11 µM | 3/3 | 0/9 |
| R28K+D91E+S92H | 12 µM | 1/3 | 1/9 |
| S26A+R28H+S55K | 150 nM | 3/3 | 2/9 |
| R28K+A32K+F98M | 850 nM | 3/3 | 0/9 |
| R28Q+Y29V+S93I | 9.8 µM | 3/3 | 1/9 |
| L27T+R28Q+F98N | no signal | 0/3 | 1/9 |
| G24S+R28G+S88N | 2.0 µM | 3/3 | 3/9 |
| R28T+K50A+R90Y | 7.8 µM | 3/3 | 3/9 |
| R28T+S88V+S89D | 370 nM | 3/3 | 1/9 |
| R28C+Y30E | 46 nM | 3/3 | 4/9 |
| R28F+Q96I+F98L | 92 µM | 1/3 | 2/9 |
| R28K+S93P+F98C | 1.4 µM | 3/3 | 5/9 |
| R28D+Y29T+F95C | 1.7 µM | 3/3 | 2/9 |
| R28K+Y29T+Y31R | 49 nM | 3/3 | 2/9 |
| L27W+R28I+R53A | 88 µM | 1/3 | 2/9 |
| G24E+R28E+S93M | 9.0 µM | 2/3 | 3/9 |
| D25H+R28T+P54E | 440 nM | 3/3 | 2/9 |
| R28Q+K50Q+R90E | 970 nM | 3/3 | 5/9 |
| R28N+K50E+R53N | 470 nM | 2/3 | 1/9 |
| R28P+S92N+G94Q | 82 nM | 3/3 | 1/9 |
| R28I+K50I+F95R | 1.9 µM | 3/3 | 4/9 |
| E23F+R28H+S93W | 2.2 µM | 3/3 | 1/9 |
| R28F+Y30D+F95H | 16 nM | 3/3 | 5/9 |
| R28F+N33Y | 12 µM | 1/3 | 1/9 |
| R28N+D91K | 130 nM | 3/3 | 2/9 |
| S26N+R28H+G49H | 36 µM | 2/3 | 4/9 |
| S26E+R28W+Y29H | 440 nM | 3/3 | 1/9 |
| R28S+G49P+N51I | 1.6 µM | 1/3 | 4/9 |
| R28G+R53S+S93H | 3.5 µM | 1/3 | 0/9 |
| E23G+R28A+R53S | 3.0 µM | 3/3 | 4/9 |
| G24W+R28N+K50A | 4.3 µM | 2/3 | 1/9 |
| R28S+Y29W+K50I | 1.2 µM | 3/3 | 4/9 |
| L27T+R28L+V97F | 8.6 µM | 1/3 | 0/9 |
| R28N+N51Y+N52R | 20 µM | 2/3 | 0/9 |
| R28V+N51V+F95L | 14 µM | 3/3 | 2/9 |
| G24W+R28Q+K50N | 2.2 µM | 3/3 | 1/9 |
| E23N+S26C+R28D | 4.0 µM | 2/3 | 3/9 |
| L27C+R28H+G49V | no signal | 0/3 | 3/9 |
| S26T+R28E+S89D | 320 nM | 1/3 | 0/9 |
| R28G+R53G | 1.1 µM | 2/3 | 0/9 |
| E23H+R28E+S92M | 220 nM | 3/3 | 2/9 |
| R28S+S55R+V97R | 4.4 µM | 3/3 | 3/9 |
| R28S+Y31W+F98Y | 720 nM | 3/3 | 1/9 |
| R28W+K50L | 1.4 µM | 2/3 | 5/9 |
| R28C+Y29A+R90D | 22 µM | 2/3 | 2/9 |

Excerpt, the first 8 entries:

| changes | Kd (apparent) | detected | signal with controls |
|---|---|---|---|
| R28K+Y29M+N52T | 230 nM | 3/3 | 1/9 |
| S26I+R28M+S93V | 96 µM | 1/3 | 2/9 |
| R28N+F95S+V97H | 230 µM | 1/3 | 2/9 |
| R28S+S89N+D91H | 1.2 µM | 3/3 | 3/9 |
| R28W+K50E+Q96G | 46 nM | 3/3 | 5/9 |
| E23N+R28D+N52D | 3.9 µM | 2/3 | 1/9 |
| R28V+N33R+G94K | no signal | 0/3 | 2/9 |
| G24A+R28M+R90D | 610 nM | 1/3 | 0/9 |

Values reported by Engelhart et al. 2022, doi:10.1038/s41597-022-01779-4 (FLAb copy).